Here are results for 54 compounds from PubChem BioAssay AID1347041 (National Center for Advancing Translational Sciences (NCATS), 2019).

Structures are written as SMILES. The entries are a selection whose mix differs from that of the whole data set. Calls of active or inactive are those of the source. Rule as the data show it: active = activity change below about -30%; inconclusive = mostly about -25% to -30%; inactive = weaker than that.

The assay deals with L-lactate dehydrogenase A chain (Homo sapiens) (UniProt P00338). Kind of assay: qHTS assay for inhibitors of human lactate dehydrogenase.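 Also: values are at about 110 or 230 µM; plate controls were DMSO wells for no effect and wells without enzyme for full effect.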 The following applies: purified LDHA, NADH/diaphorase-resazurin fluorescence; stronger effect = lower value. From the text: LDH is a key glycolytic enzyme that catalyzes the final step in the glycolytic pathway, reducing pyruvate to lactate and regenerating NAD+ equivalents necessary for continued glycolysis. LDHA has been linked to the carcinogenesis and malignancy in numerous forms of cancers and many other diseases. Consequently, both pharma and academia have invested in significant research efforts to identify small molecule therapeutics. Such attempts have been stalled or abandoned due to limited success in discovering potent and drug-like inhibitors that can be utilized to validate LDHA in vivo as a drug target, a necessary step toward advancing such a molecule towards the clinic Towards this goal we designed and performed a quantitative high-throughput screening (qHTS) campaign to discover novel compounds that are potent inhibitors of LDHA enzyme activity and cancer cell line growth.
The assay was optimized to 1536-well plates. Briefly, 3 µL of human lactate dehydrogenase 5 (#A38558H, Meridian Life Science, Inc., Memphis, TN) in LDH assay buffer (200 mM Tris HCl pH 7.4, 100 microM EDTA and 0.01% Tween-20) was added to a black solid bottom 1536-well assay plate (Greiner Bio-One) using a BioRAPTR FRD dispenser (Beckman Coulter, Brea, CA). A 1536-well pintool dispenser outfitted with 20 nL pins (Wako Automation, San Diego, CA) was used to transfer 23 nL of DMSO-solubilized compound (both library and vehicle controls) to each 1536-well assay plate. Following compound transfer, 1 µL of substrate solution containing NADH and sodium pyruvate (Sigma-Aldrich, St. Louis, MO) in LDH assay buffer was dispensed via BioRAPTR FRD to initiate the reaction. Final concentrations in the 4 microL reaction volume were 2 nM LDHA enzyme, 0.06 mM NADH and 0.2 mM sodium pyruvate. Following a 5 minute incubation period at room temperature, 1 µL of detection reagent (C. kluyveri diaphorase (Sigma-Aldrich) and resazurin sodium salt (Sigma-Aldrich) in LDH assay buffer) was added to a total volume of 5 µL. Final concentrations of detection reagents were 0.133 mg/mL diaphorase and 37 µM resazurin. Plates were immediately transferred to a ViewLux microplate imager (PerkinElmer, Waltham, MA), and any resulting resorufin fluorescence was measured (ex540, em590 nm) at 0 and 20 minutes. Fluorescence was normalized using enzyme-free and DMSO-treated control wells on each plate.
With `CP(=S)(Nn1cnnc1)Oc1ccccc1` (centres undefined), the activity change was inactive: -0.957%.

Turning to `CP(=O)(Nc1ccccc1Br)Oc1ccccc1` (centres undefined), the activity change was inactive: -2.21%.

Consider `COc1ccccc1OP(C)(=O)Nc1ccccc1` (centres undefined), for which the activity change is inactive: -7.83%.

For `O=[N+]([O-])c1cc([N+](=O)[O-])c(O)c([N+](=O)[O-])c1.c1ccc(Oc2ccncc2)cc1`, the activity change was inactive: -7.48%.

On to `CCOC(=O)c1ccc(NP(C)(=O)Oc2ccc(OC)cc2)cc1` (centres undefined), for which the activity change is inactive: -2.63%.

In the case of `CCOP(C)(=S)SCC(=O)NC(C)C(=O)O` (centres undefined), the activity change was inactive: -5.85%.

With `CP(=O)(Nc1ccccn1)Oc1ccc(Cl)cc1` (centres undefined), the activity change was inactive: -5.69%.

Turning to `CP(=O)(Oc1ccccc1)OC(c1ccccc1)C(F)(F)F` (centres undefined), the activity change is inactive: -9.74%.

With `CP(=O)(Nc1ccc(SC(F)(F)F)cc1)Oc1ccc(Cl)cc1` (centres undefined), the activity change is inactive: 3.29%.

On to `Cc1cccc(C)c1OP(C)(=O)Nc1ccc(SC(F)(F)F)cc1` (centres undefined), for which the activity change is inactive: 0.272%.

Regarding `Cc1cc(C)cc(OP(C)(=O)Nc2ccc(SC(F)(F)F)cc2)c1` (centres undefined), the activity change was inactive: 2.85%.

On to `CCc1ccc(OP(C)(=O)N2CCN(c3ccc([N+](=O)[O-])cc3)CC2)cc1` (centres undefined), for which the activity change was inactive: -10.7%.

For the compound `CP(=O)(NC(=O)Nc1ccccc1)Oc1ccccc1` (centres undefined), the activity change is inactive: -0.177%.

As to `COc1ccccc1-c1ccccn1.O=[N+]([O-])c1cc([N+](=O)[O-])c(O)c([N+](=O)[O-])c1`, the activity change was inactive: -3.5%.

For `CCN(CC)CCCOC(=O)C(O)(c1ccccc1)c1ccccc1`, the activity change was inactive: -2.82%.

Turning to `Cc1ccc(NP(C)(=O)Oc2ccccc2)c(C)c1` (centres undefined), the activity change is inactive: -5.08%.

With `COc1ccccc1OP(C)(=O)Nc1ccc(C)cc1` (centres undefined), the activity change was inactive: -3.95%.

Take `CCOC(=O)c1ccc(NP(C)(=O)Oc2ccccc2)cc1` (centres undefined): the activity change was inactive: -5.1%.

As for `Cc1cc(C)cc(OP(C)(N)=O)c1` (centres undefined), the activity change was inactive: 4.11%.

As to `COc1ccc(OP(C)(=O)Nc2cccc(F)c2)cc1` (centres undefined), the activity change is inactive: 1.42%.

Turning to `COc1ccccc1OP(C)(=O)Nc1cc(Cl)ccc1C` (centres undefined), the activity change was inactive: 2.68%.

For the compound `O=[N+]([O-])c1cc([N+](=O)[O-])c(Nc2cccnc2)c([N+](=O)[O-])c1`, the activity change is inactive: 7.49%.

For the compound `O=[N+]([O-])c1ccc2c(c1)C=Nc1ccccc1O2`, the activity change was inactive: 5%.

Consider `Cc1cccc(C)c1OP(C)(N)=O` (centres undefined), for which the activity change was inactive: -2.99%.

Take `CC(C)(C)c1ccc(OP(C)(=O)Nc2ccc(SC(F)(F)F)cc2)cc1` (centres undefined): the activity change was inactive: 3.48%.

For `CC1=NCCc2c1[nH]c1ccccc21.O=[N+]([O-])c1cc([N+](=O)[O-])c(O)c([N+](=O)[O-])c1`, the activity change was inactive: 1.01%.

Consider `Cc1ccc(C)c(NP(C)(=O)Oc2ccccc2)c1` (centres undefined), for which the activity change is inactive: -0.604%.

Regarding `CP(=O)(Nc1cccc(Br)c1)Oc1ccccc1` (centres undefined), the activity change is inactive: 1.32%.

Take `Cc1cc(C)cc(OP(C)(=O)Nc2ccccn2)c1` (centres undefined): the activity change was inactive: -8.92%.

`COc1ccccc1OP(C)(=O)Nc1cccc(Br)c1` (centres undefined): the activity change is inactive: -3.1%.

Consider `CCOC(=O)c1ccc(NP(C)(=O)Oc2cc(C)cc(C)c2)cc1` (centres undefined), for which the activity change is inactive: -3.67%.

As for `Cc1cc(C)cc(OP(C)(=O)Nc2ccc(C)cc2C)c1` (centres undefined), the activity change is inactive: 4.48%.

As for `O=[N+]([O-])c1cc([N+](=O)[O-])c(-c2cnn(-c3ccccc3)c2)c([N+](=O)[O-])c1`, the activity change is inactive: 15.4%.

As to `Cc1nc2ccc3ccccc3c2s1.O=[N+]([O-])c1cc([N+](=O)[O-])c(O)c([N+](=O)[O-])c1`, the activity change is inactive: -3.05%.

As to `O=[N+]([O-])c1cc([N+](=O)[O-])c(-n2nnc3ccccc32)c([N+](=O)[O-])c1`, the activity change is inactive: -1.81%.

As for `CN(Cc1cccnc1)C(=O)COc1ccc(Cl)c(Cl)c1.O=[N+]([O-])c1cc([N+](=O)[O-])c(O)c([N+](=O)[O-])c1`, the activity change is inactive: -5.5%.

In the case of `CN1CCCCC1COC(=O)C1(O)c2ccccc2CCc2ccccc21` (centres undefined), the activity change was inactive: 2.68%.

As to `COc1ccccc1OP(C)(=O)Nc1c(C)cccc1C` (centres undefined), the activity change was inactive: -5.21%.

On to `CP(=O)(Nc1ccc(SC(F)(F)F)cc1)Oc1ccccc1` (centres undefined), for which the activity change was inactive: -1.04%.

Take `CCCOc1ccc(NP(C)(=O)Oc2ccc(Cl)cc2)cc1` (centres undefined): the activity change was inactive: -6.72%.

Regarding `O=[N+]([O-])c1cc([N+](=O)[O-])c(Nc2nnnn2CCO)c([N+](=O)[O-])c1`, the activity change was inactive: -9.06%.

With `CC1=C2N=C(C=C3N=C(C(C)=C4[N-][C@@](C)([C@@H]5N=C1[C@](C)(CCC(=O)NC[C@@H](C)OP(=O)([O-])O[C@H]1[C@@H](O)[C@@H](n6cnc7cc(C)c(C)cc76)O[C@@H]1CO)[C@H]5CC(N)=O)[C@@](C)(CC(N)=O)[C@@H]4CCC(N)=O)[C@@](C)(CC(N)=O)[C@@H]3CCC(N)=O)C(C)(C)[C@@H]2CCC(N)=O.[C-]#N.[Co+3]`, the activity change is inactive: -0.282%.

As for `O=[N+]([O-])c1ccc(OP2(=O)COCCO2)cc1` (centres undefined), the activity change is inactive: -13.6%.

As to `Cc1cc(-c2cccc3ccccc23)c(C)cn1.O=[N+]([O-])c1cc([N+](=O)[O-])c(O)c([N+](=O)[O-])c1`, the activity change was inactive: -3.93%.

For the compound `Cc1c(C(c2ccc3c(c2)OCO3)c2c(C)n(C)n(-c3ccccc3)c2=O)c(=O)n(-c2ccccc2)n1C.O=[N+]([O-])c1cc([N+](=O)[O-])c(O)c([N+](=O)[O-])c1`, the activity change was inactive: 1.41%.

As to `COc1ccc(OP(C)(=O)Nc2cccc(Br)c2)cc1` (centres undefined), the activity change was inactive: -7.05%.

`CN(C)CCOC(=O)C(O)(c1ccccc1)C1CCCCC1` (centres undefined): the activity change is inactive: -7.24%.

Consider `COc1ccc(NP(C)(=O)Oc2ccccc2OC)cc1` (centres undefined), for which the activity change was inactive: 9.12%.

Turning to `CP(=O)(Nc1ccc2c(c1)OCCO2)Oc1ccccc1` (centres undefined), the activity change is inactive: 3.49%.

Take `Cc1ccccc1NP(C)(=O)Nc1ccccc1C`: the activity change was inactive: -4.22%.

Turning to `O=[N+]([O-])c1cc([N+](=O)[O-])c(C(F)(F)F)c([N+](=O)[O-])c1O`, the activity change is inactive: -2.52%.

For `CP(=O)(Nc1ccc(SC(F)(F)F)cc1)Oc1ccc(F)cc1` (centres undefined), the activity change is inactive: 1.84%.

For the compound `CCOP(C)(=S)SCC(=O)NC(C)(CC)C(=O)O` (centres undefined), the activity change is inactive: 0.855%.

On to `O=C(OCCN1CCN(CCOCc2ccccc2)CC1)C(O)(c1ccccc1)c1ccccc1`, for which the activity change was inactive: -3.5%.
